The target in the test is T1, L-proline-3-hydroxylase (Streptomyces sp, UniProt P96010).
T1 construct: made in house; host or cells: Streptomyces sp; TH1 (native producer, not recombinant)
T1 sequence (P96010 1-290): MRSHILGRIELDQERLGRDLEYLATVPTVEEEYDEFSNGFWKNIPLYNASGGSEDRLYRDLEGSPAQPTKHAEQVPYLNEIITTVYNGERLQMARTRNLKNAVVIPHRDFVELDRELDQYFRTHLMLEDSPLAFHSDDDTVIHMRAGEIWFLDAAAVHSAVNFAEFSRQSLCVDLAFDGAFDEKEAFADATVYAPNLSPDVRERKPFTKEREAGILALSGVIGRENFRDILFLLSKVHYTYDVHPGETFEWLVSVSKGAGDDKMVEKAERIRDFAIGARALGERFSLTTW
As to the kind of experiment: Substrate omission and addition tests on the enzyme reaction of pure L-proline-3-hydroxylase. It counts as biochemical, Streptomyces sp. TH1. The conditions noted are these: for Relative Activity: standard = 100, 35° C., 10 minutes; for Influence on the enzyme reaction for hydroxylating L-proline at the 3-position: result in words of omission and addition tests.

[1] abbreviates: component not added (−) to standard reaction mixture.
The mark [2] stands for this setting: component added (+) at 1 mm to standard reaction mixture.

The results in this text go back to patent US6767726B2, “Process for producing cis-3-hydroxy-L-proline” (Kyowa Hakko Kogyo Co., Ltd., priority 1993, dated 2004).

With `O=C(O)CCC(=O)C(=O)O` [2-ketoglutaric acid], the “Influence on the enzyme reaction for hydroxylating L-proline at the 3-position” value (shortened to “Influence on the enzyme reaction”) is reported as “indispensable”. In addition, the “Relative Activity” value under setting [1] is given as 0.
For `[Ba+2]` [Ba^++], the “Influence on the enzyme reaction” value is listed as “inhibit the reaction”. Also, the “Relative Activity” value under setting [2] was determined as 42.
For `[Co+2]` [Co^++], the “Influence on the enzyme reaction” value is “inhibit the reaction”. Also, under setting [2], the “Relative Activity” value was 13.
Taken in the same sequence, the figures for `[Cu+2]` [Cu^++] were “inhibit the reaction” and 4.
For the molecule `[Fe+2]` [Fe^++], the “Influence on the enzyme reaction” value is on record as “indispensable”. Besides, the “Relative Activity” value under setting [1] stood at 0.
Taken in the same sequence, the figures for `O=C1O[C@H]([C@@H](O)CO)C(O)=C1O` [L-ascorbic acid] were “promotes the enzyme reaction” and 25.
As for `[Zn+2]` [Zn^++], the “Influence on the enzyme reaction” value is listed as “inhibit the reaction”. Further, the “Relative Activity” value under setting [2] worked out at 0.
